Experimental findings from PubChem BioAssay AID686992 (Broad Institute, 2013) are described below.

By UniProt entry, the sequences of proteins in these tests, tags left out.
UniProt P16581, whole entry: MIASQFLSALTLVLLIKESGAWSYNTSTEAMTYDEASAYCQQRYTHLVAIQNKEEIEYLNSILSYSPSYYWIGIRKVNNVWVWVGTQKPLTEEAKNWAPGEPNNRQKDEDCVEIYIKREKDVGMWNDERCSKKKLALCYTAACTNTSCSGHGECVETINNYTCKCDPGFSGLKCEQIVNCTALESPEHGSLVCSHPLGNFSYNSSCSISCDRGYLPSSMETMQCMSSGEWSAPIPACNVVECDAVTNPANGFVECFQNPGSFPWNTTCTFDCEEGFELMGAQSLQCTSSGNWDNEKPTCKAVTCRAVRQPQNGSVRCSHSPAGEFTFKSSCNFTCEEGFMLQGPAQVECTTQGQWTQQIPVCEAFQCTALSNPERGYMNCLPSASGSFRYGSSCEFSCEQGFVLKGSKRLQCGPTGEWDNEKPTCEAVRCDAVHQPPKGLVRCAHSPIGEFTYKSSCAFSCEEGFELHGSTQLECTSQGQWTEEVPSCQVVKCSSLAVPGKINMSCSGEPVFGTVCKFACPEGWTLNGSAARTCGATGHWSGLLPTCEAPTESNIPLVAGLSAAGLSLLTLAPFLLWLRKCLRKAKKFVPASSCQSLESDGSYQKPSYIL

The entries are a selection whose mix differs from that of the whole data set. Some tests of the compounds listed are not included; inactive here does not mean inactive elsewhere. Calls of active or inactive are those of the source.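 How the source made its calls: active means mean E-selectin-positive cell signal at least 10% of the positive control, reached in at least 60% of replicates, without over 20% cell loss; inconclusive means no rule given, readout overlaps actives, possibly toxicity-flagged; inactive means the rest, including those meeting only one limit.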

The assay has as its target E-selectin (Homo sapiens) (UniProt P16581). Nature of the assay: E-selectin induction in HUVECs, primary screen, imaging, HUVEC, immunofluorescence imaging, single point (AID 686992).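 Further: signal is the percent of cells scored E-selectin positive by PE staining.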 Conditions: at 7.58 µM, stronger effect = higher value, normalized: neutral wells 0, TNF-alpha wells 100. The method, boiled down: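 Test system: HUVEC; input: 3,000 HUVEC/well; measured by: immunofluorescence imaging; read-out: % PE-positive cells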
Turning to `Cc1ccc(C(=O)NCC2(N3CCCCC3)CCCCC2)cc1`, the activation was inactive: -0.076%.

For `CCN(CC)CC(C)C(C)OC(=O)C(O)(c1ccccc1)c1ccccc1` (stereo not drawn), the activation was inactive: 0.521%.

As to `COc1cc(SC)ccc1C(=O)NCC1(N(C)C)CCCCC1`, the activation was inactive: 20.4%.

For the molecule `O=C(NCC1(N2CCCCC2)CCCCC1)c1cc([N+](=O)[O-])ccc1Cl`, the activation is inactive: -0.0225%.

For `CN(C)C1CCCC1OC(=O)C(O)(c1ccccc1)c1ccccc1` (stereo not drawn), the activation is inactive: -1.96%.

On to `CN(C)c1ccc(C(=O)NCC2(N(C)C)CCCCC2)cc1`, for which the activation was inactive: -0.0345%.

`COc1cccc(C(=O)NCC2(N3CCCCC3)CCCCC2)c1`: the activation is inactive: 6%.

Turning to `COc1cc(C(=O)NCC2(N(C)C)CCCCC2)c([N+](=O)[O-])cc1OC`, the activation was inactive: 0.267%.

Take `CN(C)C1(CNC(=O)c2ccc(Br)cc2)CCCCC1`: the activation is inactive: 0.164%.

Turning to `CC(C)Oc1ccc(C(=O)NCC2(N(C)C)CCCCC2)cc1`, the activation was inactive: 2.37%.

On to `O=C(OCCN1CCCC1)C(O)(c1ccccc1)c1ccccc1`, for which the activation was inactive: -0.101%.

As for `C=C(C)C#CC(O)(C(=O)OC1CCN(C)CC1)c1ccccc1` (stereo not drawn), the activation is inactive: 0.089%.

Regarding `COc1ccc(Br)c(C(=O)NCC2(N3CCCCC3)CCCCC2)c1`, the activation is inactive: 3.56%.
